Consider one molecule from patent publication US20210284618A1, “FURANOCHALCONES AS INHIBITORS OF CYP1A1, CYP1A2 AND CYP1B1 FOR CANCER CHEMOPREVENTION” (Council of Scientific & Industrial Research, priority 2016, published 2021).

The experiment has as its target T1, CYP1B1 (Homo sapiens, UniProt Q16678).
T1 sequence (Q16678 1-543): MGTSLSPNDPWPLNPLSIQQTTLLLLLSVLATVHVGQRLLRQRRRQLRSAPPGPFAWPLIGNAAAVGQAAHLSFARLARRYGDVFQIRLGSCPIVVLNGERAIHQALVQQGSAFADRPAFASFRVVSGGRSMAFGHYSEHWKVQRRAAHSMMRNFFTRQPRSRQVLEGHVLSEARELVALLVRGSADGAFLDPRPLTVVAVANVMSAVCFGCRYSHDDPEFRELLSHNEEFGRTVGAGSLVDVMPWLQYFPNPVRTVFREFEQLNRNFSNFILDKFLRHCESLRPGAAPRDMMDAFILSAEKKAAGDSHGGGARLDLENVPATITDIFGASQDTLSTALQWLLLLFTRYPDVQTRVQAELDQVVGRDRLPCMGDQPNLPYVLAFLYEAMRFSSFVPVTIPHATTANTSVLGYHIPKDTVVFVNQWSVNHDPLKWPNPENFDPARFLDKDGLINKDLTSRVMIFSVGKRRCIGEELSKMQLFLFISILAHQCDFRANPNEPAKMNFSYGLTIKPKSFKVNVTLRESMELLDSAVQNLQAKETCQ
In words: CYP1B1 inhibition in live human cells (HEK293). The experiment is classed as cell-based.

The molecule `O=c1cc(-c2ccccc2)oc2c1ccc1ccccc12` [Alpha-naphthoflavone, reference compound] showed a half-maximal inhibitory concentration (IC50) greater than 10000 nM.

Usually IC50 stands for the point on the concentration scale where inhibition reaches its midpoint. A low value points to inhibition by little substance.
